Data reported in patent publication US20250074919A1, “Heteroaryl compounds as inhibitors of irak4, compositions and applications thereof” (Accro Bioscience (HK) Limited, priority 2021, published 2025).
Where two headings read alike, the source gives them in different places.

Sequences of proteins named here, by UniProt entry; tags and fusion partners are left off.
UniProt Q9NWZ3, whole entry: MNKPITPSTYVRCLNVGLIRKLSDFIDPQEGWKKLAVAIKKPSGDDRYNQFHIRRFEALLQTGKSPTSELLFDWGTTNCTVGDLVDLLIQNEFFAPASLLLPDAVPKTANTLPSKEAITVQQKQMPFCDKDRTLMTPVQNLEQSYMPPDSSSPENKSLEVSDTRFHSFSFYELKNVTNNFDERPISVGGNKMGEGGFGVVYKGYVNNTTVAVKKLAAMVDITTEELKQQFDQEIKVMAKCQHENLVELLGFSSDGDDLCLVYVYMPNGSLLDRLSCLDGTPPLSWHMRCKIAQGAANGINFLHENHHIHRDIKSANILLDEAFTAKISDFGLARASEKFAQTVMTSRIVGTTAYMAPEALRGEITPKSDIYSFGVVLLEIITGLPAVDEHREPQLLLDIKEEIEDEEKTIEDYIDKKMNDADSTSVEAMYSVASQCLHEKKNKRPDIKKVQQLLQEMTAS

Target: IRAK4 (Homo sapiens (Human), UniProt Q9NWZ3)
Test: Screening the compounds against IRAK4 with ATP (Caliper, FAM-labeled peptide)
Format: biochemical
Conditions: for IC50: read-out: IC50 (nM) (10 μM ATP)
Procedure: Prepare Ix kinase base buffer and stop buffer for testing kinases: (1) base buffer: 50 mM HEPES (pH 7.5), 0.0015% Brij-35; (2) stop buffer: 100 mM HEPES (pH 7.5), 0.015% Brij-35, 0.2% Coating Reagent #3, 50 mM EDTA. Then prepare compounds for testing: Dilute the compound to 50× of the final desired highest inhibitor concentration in reaction by 100% DMSO. Transfer 100 μL of this compound dilution to a well in a 96-well plate (source plate).
Serially dilute the compounds by 3-fold for a total of 10 points. Transfer 10 μL of the compound from the source plate to a new 96-well plate (intermediate plate) and add 90 μL of Ix kinase buffer. Shake the mixture on the intermediate plate for 10 min. Transfer 5 μL of each well from the 96-well intermediate plate to a 384-well plate in duplicates. Add 10 μL of 2.5× enzyme solution to each well of the 384-well assay plate and incubate at room temperature for 10 min. Add 10 μL, of 2.5×FAM-labeled peptide and ATP solution and incubate at 28° C. for a period of time. Finally stop the reaction by adding 30 μL of stop buffer and collect data on Caliper to obtain the IC50.

SMILES	IC50 (IRAK4 kinase, 10 μM ATP)	IC50	activity, times better than that of the positive control compound CA4948
Cn1cc(-c2cccc(NC(=O)c3cc4c(nc3OCCO)OC(C)(C)C4)n2)cn1 [Compound B18, 6-(2-Hydroxyethoxy)-2,2-dimethyl-N-(6-(1-methyl-1H-pyrazol-4-yl)pyridin-2-yl)-2,3-dihydrofuro[2,3-b]pyridine-5-carboxamide]	22 nM	–	–
COCCOc1nc2c(cc1C(=O)Nc1cccc(-c3cnn(C)c3)n1)CC(C)(C)O2 [Compound B19, 6-(2-Methoxyethoxy)-2,2-dimethyl-N-(6-(1-methyl-1H-pyrazol-4-yl)pyridin-2-yl)-2,3-dihydrofuro[2,3-b]pyridine-5-carboxamide]	18 nM	–	–
CN(C)CCOc1nc2c(cc1C(=O)Nc1cccc(-c3cnn(C)c3)n1)CC(C)(C)O2 [Compound B32, 6-(2-(Dimethylamino)ethoxy)-2,2-dimethyl-N-(6-(1-methyl-1H-pyrazol-4-yl)pyridin-2-yl)-2,3-dihydrofuro[2,3-b]pyridine-5-carboxamide]	–	236 nM	–
Cn1cc(-c2cccc(NC(=O)c3cc4c(nc3O[C@H]3C[C@H](O)C3)OC(C)(C)C4)n2)cn1 [Compound B36, 6-(trans-3-Hydroxycyclobutoxy)-2,2-dimethyl-N-(6-(1-methyl-1H-pyrazol-4-yl)pyridin-2-yl)-2,3-dihydrofuro[2,3-b]pyridine-5-carboxamide]	–	4.5 nM	more than 25 times
